Reference: patent publication US20260069653A1, “COMPLEMENT INHIBITOR DOSING REGIMENS” (Apellis Pharmaceuticals, Inc., priority 2021, published 2026)

Chains of the proteins cited; added tags and fusions are not shown. Residues count along the entry.
UniProt P01024, 23-667 limits assumed: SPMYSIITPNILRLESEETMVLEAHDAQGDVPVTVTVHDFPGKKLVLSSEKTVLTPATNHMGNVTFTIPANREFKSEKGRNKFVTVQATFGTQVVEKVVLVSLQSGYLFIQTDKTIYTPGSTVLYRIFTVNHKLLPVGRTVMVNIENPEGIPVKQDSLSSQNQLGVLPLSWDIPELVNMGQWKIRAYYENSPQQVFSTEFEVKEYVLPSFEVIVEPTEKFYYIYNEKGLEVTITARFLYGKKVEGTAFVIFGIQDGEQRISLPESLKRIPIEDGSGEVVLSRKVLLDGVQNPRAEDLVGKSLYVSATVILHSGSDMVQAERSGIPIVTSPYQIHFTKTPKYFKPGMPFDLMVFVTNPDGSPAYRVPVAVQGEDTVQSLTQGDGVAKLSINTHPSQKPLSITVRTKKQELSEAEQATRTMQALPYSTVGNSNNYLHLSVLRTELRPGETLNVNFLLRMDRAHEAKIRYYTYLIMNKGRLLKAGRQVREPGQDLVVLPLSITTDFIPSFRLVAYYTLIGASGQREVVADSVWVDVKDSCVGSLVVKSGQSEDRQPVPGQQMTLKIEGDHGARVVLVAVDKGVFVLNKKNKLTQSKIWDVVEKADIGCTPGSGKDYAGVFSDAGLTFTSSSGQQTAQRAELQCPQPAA
UniProt P01024, 672-1663 partner limits assumed: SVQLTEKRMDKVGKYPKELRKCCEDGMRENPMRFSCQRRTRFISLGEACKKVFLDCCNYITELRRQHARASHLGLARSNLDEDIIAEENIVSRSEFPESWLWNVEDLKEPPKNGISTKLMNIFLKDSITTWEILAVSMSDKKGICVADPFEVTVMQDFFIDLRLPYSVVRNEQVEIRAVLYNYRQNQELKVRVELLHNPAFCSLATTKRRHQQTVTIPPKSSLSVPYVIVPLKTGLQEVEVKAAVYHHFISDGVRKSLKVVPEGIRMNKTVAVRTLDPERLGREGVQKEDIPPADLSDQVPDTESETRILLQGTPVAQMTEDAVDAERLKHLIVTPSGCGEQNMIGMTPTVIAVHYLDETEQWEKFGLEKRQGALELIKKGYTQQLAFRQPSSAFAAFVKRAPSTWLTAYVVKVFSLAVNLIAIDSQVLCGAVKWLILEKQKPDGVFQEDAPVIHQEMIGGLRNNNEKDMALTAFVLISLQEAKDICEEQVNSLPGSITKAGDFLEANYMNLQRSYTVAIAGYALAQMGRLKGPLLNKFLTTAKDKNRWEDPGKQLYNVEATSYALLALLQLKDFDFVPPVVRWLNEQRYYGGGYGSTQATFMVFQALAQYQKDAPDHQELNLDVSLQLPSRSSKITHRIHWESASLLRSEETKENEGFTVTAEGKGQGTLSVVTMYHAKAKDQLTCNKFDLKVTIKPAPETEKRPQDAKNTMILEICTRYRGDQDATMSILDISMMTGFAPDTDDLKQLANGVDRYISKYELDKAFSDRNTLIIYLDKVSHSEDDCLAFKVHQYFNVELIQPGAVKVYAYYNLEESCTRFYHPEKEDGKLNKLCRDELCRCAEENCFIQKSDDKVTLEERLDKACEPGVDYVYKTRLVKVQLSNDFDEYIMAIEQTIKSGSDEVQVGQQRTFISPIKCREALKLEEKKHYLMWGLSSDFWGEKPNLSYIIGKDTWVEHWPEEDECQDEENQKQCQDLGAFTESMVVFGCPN

Assays:
C3 = target: T1, C3 (Homo sapiens, UniProt P01024); assay: C3 levels (turbidimetric immunoassay) after single IV infusion; assay type: in vivo; conditions: post-dosing start
T1 construct: from tissue; host or cells: blood samples of healthy human volunteers
Experimental: C3: C3 levels were measured on the BindingSite SPA Plus. The SPA plus measures protein concentration by a turbidimetric immunoassay. The specimen to be tested is mixed with a fixed concentration of excess polyclonal antibodies to the analyte of interest. This leads to the formation of large antigen-antibody immune complexes. The specimen is diluted to reach a point where the antigen concentration is near the equivalent point with the antibody. When light is passed through the suspension, a portion is transmitted and focused onto a photodiode by an optical lens system. The amount of transmitted light is indirectly proportional to the specific protein concentration in the sample. Concentrations are automatically calculated by reference to a calibration curve. The amount of analyte (C3 which is causing agglutination) in the sample can therefore be easily determined. C3 concentrations are expressed as g/L.
C3 Calculations: For turbidimetric assays, the change in the amount of light absorbed (inverse of amount transmitted) is dependent on the amount of agglutination between the analyte and the specific antibodies. Thereby, the amount of analyte (C3 which is causing agglutination) in the sample is determined.

[1] = system: alternative complement pathway hemolytic activity (AH50); assay: AH50 hemolytic assay on serum after single IV infusion; assay type: in vivo, human; conditions: single IV 2300 mg
Experimental: AH50 Method: AH50 was measured by a hemolytic assay based on lysis of rabbit red blood cells (RA) due to activation of complement on the cell's surface. The AH50 (50% Alternative Complement Hemolytic dose) was determined for each component by adding a limiting amount of the test serum or plasma. For this assay, the buffers are created such as to block activity of the classical pathway, which requires calcium. Serial dilutions of the test specimen were mixed with equal volumes of the RA. This functional assay measured the amount of hemoglobin that was released when the target cells were lysed by the action of complement, and from this, the percentage of the cells that had been lysed was calculated. The major peak of the hemoglobin spectrum was read at 415 nm wavelength. For each assay the run was verified with a five-point standard and five points of characterized QC control.
AH50 Calculations: For verifiable continuity between assay runs, the AH50 assay was performed using a human serum standard with known AH50 activity. Serial dilutions of the standard were used to establish its 50% lysis point (the point where the best-fit line formed from the percent lysis (Y) versus the reciprocal of the dilution of serum (X) reaches 50%). […] Each specimen from the study was diluted in the same manner and individual 50% lysis points determined by linear regression.

With “Poly(oxy-1,2-ethanediyl), α-hydro-ω-hydroxy-, 15,15′-diester with N-acetyl-L-isoleucyl-L-cysteinyl-L-valyl-1-methyl-L-tryptophyl-L-glutaminyl-L-α-aspartyl-L-tryptophylglycyl-L-alanyl-L-histidyl-L-arginyl-L-cysteinyl-L-threonyl-2-[2-(2-aminoethoxy)ethoxy]acetyl-N^6-carboxy-L-lysinamide cyclic (2-->12)-(disulfide) [PEG]” the “time of peak mean C3” value (C3; all PEG groups except 600 mg) was 168 h, the “time of peak mean C3” value (C3; single IV 600 mg) was 120 h and the “time for which decrease in mean AH50 was maintained” value [1] was no less than 168 h.
